From paper PMC551613, “Engineered G protein coupled receptors reveal independent regulation of internalization, desensitization and acute signaling” (2005)
Where two headings read alike, the source gives them in different places.

Protein sequences, listed by entry. Tags and fused reporters are not part of them.
UniProt P41145, whole entry E297Q/S356A/T357A/S358A/T363A, looked up: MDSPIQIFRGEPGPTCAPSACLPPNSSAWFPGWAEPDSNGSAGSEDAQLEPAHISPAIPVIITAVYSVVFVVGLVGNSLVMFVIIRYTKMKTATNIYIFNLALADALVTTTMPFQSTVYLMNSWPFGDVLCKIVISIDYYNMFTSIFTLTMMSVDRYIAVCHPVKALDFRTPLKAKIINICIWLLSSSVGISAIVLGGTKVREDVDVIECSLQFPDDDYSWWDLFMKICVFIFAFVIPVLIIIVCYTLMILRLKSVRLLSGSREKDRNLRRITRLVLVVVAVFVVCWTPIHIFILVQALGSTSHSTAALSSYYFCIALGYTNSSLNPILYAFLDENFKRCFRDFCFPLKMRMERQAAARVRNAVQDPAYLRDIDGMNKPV
UniProt P41145, whole entry E297Q, looked up: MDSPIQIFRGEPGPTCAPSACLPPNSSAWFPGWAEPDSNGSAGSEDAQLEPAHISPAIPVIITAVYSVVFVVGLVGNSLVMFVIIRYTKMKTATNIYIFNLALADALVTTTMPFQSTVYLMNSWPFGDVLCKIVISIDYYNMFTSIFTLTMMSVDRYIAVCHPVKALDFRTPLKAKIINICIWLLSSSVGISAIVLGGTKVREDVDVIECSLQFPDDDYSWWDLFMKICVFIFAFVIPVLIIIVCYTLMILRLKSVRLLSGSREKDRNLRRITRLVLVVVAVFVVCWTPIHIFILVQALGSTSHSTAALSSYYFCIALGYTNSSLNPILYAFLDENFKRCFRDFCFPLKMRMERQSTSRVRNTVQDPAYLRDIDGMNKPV

Columns and labels:
[1] = biological target: T1, Rog-A (Homo sapiens, UniProt P41145, E297Q/S356A/S358A/T357A/T363A, form not given); test: cAMP accumulation assay (inhibition of forskolin-induced cAMP), HEK293 cells transiently expressing receptor
[2] = biological target: T2, Rog (Homo sapiens, UniProt P41145, E297Q, form not given); test: as above
[3] = biological target: human KOR (Homo sapiens, UniProt P41145); test: as above; settings: read-out: EC50 for inhibition of cAMP accumulation, acute, representative experiment
[4] = biological target: T3, Rog-μ (Homo sapiens, UniProt P41145, E297Q, form not given); test: as above
[5] = biological target: Rog-μA (Homo sapiens, UniProt P41145, E297Q, form not given); test: as above
[6] = test system: RASSLs (all receptor types); test: Cell-surface ELISA in parallel with the AC superactivation experiment; settings: 10 nM spiradoline for 18 hours; no significant differences between receptor types
[7] = biological target: T2, Rog; test: FLIPR calcium assay, CHO cells co-transfected with Gqi5; settings: Rog in CHO cells; range of doses
[8] = biological target: T2, Rog; test: Cell-surface ELISA (receptor internalization / surface expression)
[9] = biological target: T3, Rog-μ; test: as above; settings: 0.01 to 0.1 μM spiradoline, 1 h
[10] = test system: original RASSLs; settings: spiradoline; cited from earlier work
[11] = biological target: T1, Rog-A; test: Cell-surface ELISA (receptor internalization); settings: 1 μM spiradoline
[12] = test system: KOR; test: Cell-surface ELISA (receptor internalization); settings: 100 μM spiradoline, data not shown
[13] = biological target: T1, Rog-A; test: Confocal microscopy of GFP-tagged receptor localization; settings: 10 μM spiradoline, one hour, stable HEK293
[14] = biological target: T2, Rog; test: as above; settings: spiradoline 10–100 μM, one hour
[15] = biological target: T3, Rog-μ; test: as above; settings: 10 μM spiradoline, one hour
[16] = after 1 nM spiradoline pretreatment, mean ± SEM
[17] = read-out: EC50 for inhibition of cAMP accumulation, acute activation, mean ± SEM
[18] = read-out: EC50 for inhibition of cAMP accumulation, after 1 nM spiradoline pretreatment, mean ± SEM

## CN(C(=O)Cc1ccc(Cl)c(Cl)c1)C1CCC2(CCCO2)CC1N1CCCC1 (centres unmarked)
[1]; [16]
  % Inhibition of cAMP accumulation (Emax): 53.3 ± 0.9%
[1]; overnight spiradoline, then 10 μM forskolin, compared with Rog
  AC superactivation (forskolin-stimulated cAMP after chronic agonist): slightly smaller increase in cAMP
[1]; [17]
  EC50: 0.41 nM
[1]; [18]
  EC50: 0.42 nM
[2]; 1 nM spiradoline pretreatment vs vehicle
  shift of dose response curve after spiradoline pretreatment: approximately 10 fold
[2]; 10 nM spiradoline 18 hours, then 10 μM forskolin, vs forskolin alone
  AC superactivation (forskolin-stimulated cAMP after chronic agonist): twice as much cAMP
[2]; [16]
  % Inhibition of cAMP accumulation (Emax): 55.7 ± 3.7%
[2]; read-out: EC50 for inhibition of cAMP accumulation, acute activation (15-min treatment), mean ± SEM
  EC50: 0.41 nM
[2]; [18]
  EC50: 4.32 nM
[3]
  EC50: 0.91 nM
[4]; 18 h spiradoline pretreatment
  AC superactivation (forskolin-stimulated cAMP after chronic agonist): no evidence of AC superactivation
[4]; [16]
  % Inhibition of cAMP accumulation (Emax): 43.6 ± 1.5%
[4]; [17]
  EC50: 0.42 nM
[4]; [18]
  EC50: 2.05 nM
[5]; 18 h spiradoline pretreatment
  AC superactivation (forskolin-stimulated cAMP after chronic agonist): no evidence of AC superactivation
[5]; [17]
  EC50: 0.5 nM
[5]; read-out: EC50 for inhibition of cAMP accumulation, after 1 nM spiradoline pretreatment, estimate, no sigmoidal curve fitted up to 100 nM
  EC50: ≥ 13.4 nM
[6]
  receptors internalized: 7–10%
[7]
  transient calcium response (Gi activation via Gqi5): responded dose-dependently
[8]; 1 μM spiradoline
  time to maximal receptor loss: approximately 20 min
[8]; 100 μM spiradoline (maximal dose), 1 h
  loss of cell-surface receptors: approximately 45%
[9]
  internalization: 25–30%
[10]
  response relative to the wild-type KOR: not altered
[11]
  time to maximal internalization: 20 min
[11]; 20 min
  receptors internalized: < 10%
[12]
  loss of receptor from the cell surface: 47%
[13]
  receptor internalization seen by confocal microscopy: most Rog-A receptors appeared to remain in the membrane
[14]
  receptor internalization seen by confocal microscopy: observed in bright, punctate intracellular vesicles
[15]
  receptor internalization seen by confocal microscopy: nearly complete internalization
